Test results as given in patent publication US9534007B2, “Methods and compositions for treatment of cyanide and hydrogen sulfide toxicity” (dated 2017).

Columns and labels:
[1] = Range-finding toxicity studies; conditions: mice and rats
[2] = Cobinamide and hydroxocobalamin content of the flies
[3] = Reaction of sulfide with cobinamide (UV-vis spectrum); conditions: 25 μM cobinamide with water and hydroxyl ligands, NaSH 6.25 to 250 μM
[4] = Absorption after injection; conditions: for absorption after intramuscular injection: in vivo
[5] = Stability in aqueous solution

In the case of cobinamide, the dose limiting toxicity [1] was “acute transient coagulation abnormalities”, the “drug content of flies” value ([2]; 100 μM fed flies) was 1.85 µM and the “drug content of flies” value ([2]; 200 μM fed flies) was 1.72 µM. For the same substance, the “sulfide molecules consumed and bound” value [3] was “consumes and binds two sulfide molecules”.
With dinitrocobinamide the “absorption after intramuscular injection” value [4] was “absorbed after intramuscular injection” and the “stability relative to aquohydroxocobinamide” value [5] was “even more stable than aquohydroxocobinamide”.
With hydroxocobalamin the “drug content of flies” value ([2]; 100 μM fed flies) was 1.59 µM and the “drug content of flies” value ([2]; 200 μM fed flies) was 3.4 µM.
With sulfitocobinamide the “absorption after intramuscular injection” value [4] was “absorbed after intramuscular injection” and the “stability relative to aquohydroxocobinamide” value [5] was “even more stable than aquohydroxocobinamide”.
With trimethylaminoethyl-cobinamide the absorption ([4]; route not stated) was “not well absorbed”.
